Binding of CDR-mutated scFvs to a peptide of the spike HR2 region

The measurements come from Li et al. 2023 (doi:10.1038/s41467-023-39022-2) through the FLAb antibody collection.

Antigen: PDVDLGDISGINAS, a 14-residue peptide of the SARS-CoV-2 spike HR2 region.

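Designed CDR sequences, proposed from the first random library and measured here. Their group label is 14L_Ctrl (Ctrl: baseline library sampled from a position-specific scoring matrix, with some repeated check sequences). The assay is AlphaSeq: two haploid yeast populations carry antibody and antigen on their surface. Binding brings cells together so that they mate, and sequencing counts the barcode pairs among the diploids. A regression on co-assayed BCL2-family reference pairs converts the normalised counts of each replicate to an apparent Kd. Mating was done six times.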

Parent scFv Ab-14: VH joined to VL by the linker GGGGSGGGGSGGGGS. Changes lie in the light chain CDRs alone.
VH: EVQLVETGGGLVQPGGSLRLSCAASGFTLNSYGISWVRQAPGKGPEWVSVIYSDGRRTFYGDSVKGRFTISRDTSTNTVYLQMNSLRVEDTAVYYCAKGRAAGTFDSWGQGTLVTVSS
VL: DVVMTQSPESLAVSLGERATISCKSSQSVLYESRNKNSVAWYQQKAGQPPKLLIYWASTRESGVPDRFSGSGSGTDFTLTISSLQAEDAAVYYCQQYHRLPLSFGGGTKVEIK

The parent's light chain CDRs are KSSQSVLYESRNKNSVA, WASTRES, QQYHRLPLS; each variant's own CDRs replace them letter for letter. Values are log10 of the apparent Kd in nM; lower means stronger binding. The mean shown is taken over the replicates in which the pair was detected. An entry "n.d." has no value in the source: the pair was not observed among the diploids in that replicate. This suggests poor binding but is not conclusive.

CDR-L1,CDR-L2,CDR-L3,"log10 Kd, replicates",mean log10 Kd (nM),empty controls
KSSQSVLYESRNKNAVA,WASTRES,FQYHRLPLS,n.d. 2.77 n.d. 2.10 n.d. n.d.,2.43,0/18
KHSQSVLYECSNKNSVA,WASTRES,QQYHRLPLS,n.d. 1.14 1.07 2.05 1.19 1.28,1.35,1/18 (2.05)
KRSQSVLYESRNKNSVA,WASTRES,QQYHRLPLS,n.d. 3.60 2.36 3.75 2.62 n.d.,3.08,2/18 (2.77)
KSSQLVLYETRNKNSVA,WASTRES,QQYHRLPLS,n.d. n.d. n.d. n.d. n.d. n.d.,n.d.,0/18
KSSSNVLYESRNKDSVA,WASTRES,QQYFRLPLE,n.d. n.d. 1.55 1.40 1.88 n.d.,1.61,0/18
KSSQAVLYESRNKNSVA,WAITRES,QQYHRLPLS,n.d. n.d. n.d. n.d. n.d. 2.31,2.31,0/18
KCSQSVLDESRNKNSVA,WASTRES,QQYHRLPLS,1.45 2.13 1.47 1.46 n.d. 2.04,1.71,0/18
KSSQSVLYESRNKNSVA,WASTRFS,PDYHRLPLS,n.d. n.d. n.d. n.d. n.d. n.d.,n.d.,0/18
KSSQSVLYESRNKNSVA,WASTRES,QQYHRLPLN,n.d. n.d. n.d. n.d. n.d. n.d.,n.d.,0/18
KSSQSVSYESGNKNSVA,QASIRES,QQYHRMPLS,1.12 0.98 0.74 0.91 0.65 1.19,0.93,0/18
KSSQSVLKESRNMNSVA,NASTRER,QQYHRLCLS,1.99 2.24 2.16 1.81 1.17 1.24,1.77,1/18 (1.84)
KSSQSVLYESSNKNSVA,WASQRES,QQYHWLPLS,n.d. n.d. n.d. n.d. n.d. n.d.,n.d.,0/18
FSSMSVMYESRNKASVA,QASTRES,QQYHRLPLS,n.d. n.d. 1.33 2.14 2.30 2.42,2.05,0/18
KSSQSVLYEGRNKNSVA,WASTRHS,QQYHRLPLS,n.d. 5.11 2.55 n.d. 3.82 3.56,3.76,0/18
KFSQDVLVESRYKNSVA,WASTRES,QQVHRLPLS,2.23 1.70 0.99 1.74 1.28 1.56,1.58,1/18 (2.62)
KSEQSSLWASRNLNSVA,HASRRES,QQYHRLPLS,1.20 1.14 1.32 1.47 1.21 1.40,1.29,3/18 (3.18)
KSSQSVLQESRNKNSVA,WASTRES,QQYHRLPPS,n.d. n.d. n.d. n.d. n.d. n.d.,n.d.,0/18
KSCISVLYESRDKNSVA,QASTRES,QQYHRLPLS,-0.21 0.36 0.41 1.14 0.17 1.36,0.54,0/18
KLSQSVGYYSRNKNSVA,WASQRES,QQYHSLPLS,1.04 1.26 0.67 0.47 0.81 0.93,0.87,2/18 (2.16)
KSSQSDLYTSRNKNSVA,SASTREQ,QQYHILPLS,0.20 -0.16 0.05 0.04 0.15 0.30,0.10,1/18 (1.78)
KSSVSVLYESRNKNSIA,NASTRES,QQYHRLPLS,n.d. n.d. n.d. 1.76 n.d. n.d.,1.76,0/18
KVEQSVLYDTRNKNSVA,WASTRES,QQYHRLPLS,1.32 1.85 1.94 1.58 1.60 1.94,1.70,1/18 (3.16)
KSGQSRLGESRTDNSVA,WASKRES,QQYHRLPLS,-0.46 n.d. 1.33 n.d. 1.21 1.46,0.88,0/18
KSSGSVLYESRNKNSVA,NASTRCS,QQYHRLPLS,0.39 0.41 0.13 0.16 0.50 0.28,0.31,1/18 (2.22)
KDSQIVLYESRNKNSVA,WASTRES,QQYHRLPLF,n.d. n.d. n.d. n.d. n.d. n.d.,n.d.,0/18
KSSQSWLYESRNKNSVA,RASTRES,QSYHRLPLS,0.50 1.08 1.18 0.65 1.57 1.29,1.04,0/18
KSSQSDLYEERNKNSVA,GASTRES,QHSHRLPLS,0.55 0.82 0.58 0.87 0.31 0.65,0.63,0/18
KSSQGVLEESRNKNSVA,WASTRES,QQYHRLPLY,2.33 1.85 n.d. 1.91 2.46 1.75,2.06,0/18
KSSQSVLYESRNKNSVA,EASTRES,QQYHRLPLF,n.d. n.d. 2.13 2.61 1.59 n.d.,2.11,1/18 (2.94)
KSNIEVLYESRNKNSVA,WASTRES,QQYDRLPLS,1.62 2.11 n.d. 1.21 n.d. 2.07,1.75,0/18
KSSQSVLYERRNKNSVA,WAATRES,QAYHRLPLS,n.d. n.d. n.d. n.d. n.d. n.d.,n.d.,0/18
KSSQSVEYESRDKNSVA,MASTRVS,QQYHRLPLS,0.77 0.88 0.70 0.51 0.77 0.90,0.76,0/18
KSSHSQLYESRNKPSVA,KASTRES,QQYHRLPIS,n.d. n.d. n.d. 1.48 n.d. n.d.,1.48,1/18 (2.09)
KSSQSQLYESRNKNSVA,YASTRES,QQYHRLPLS,2.30 n.d. n.d. n.d. 3.03 2.82,2.72,0/18
KSSQSVLYESVNHNSVA,QASTRES,QQYHRLPVS,1.73 2.32 1.50 1.44 2.54 1.97,1.92,0/18

The closing 4 entries, repeated:

CDR-L1	CDR-L2	CDR-L3	log10 Kd, replicates	mean log10 Kd (nM)	empty controls
KSSQSVEYESRDKNSVA	MASTRVS	QQYHRLPLS	0.77 0.88 0.70 0.51 0.77 0.90	0.76	0/18
KSSHSQLYESRNKPSVA	KASTRES	QQYHRLPIS	n.d. n.d. n.d. 1.48 n.d. n.d.	1.48	1/18 (2.09)
KSSQSQLYESRNKNSVA	YASTRES	QQYHRLPLS	2.30 n.d. n.d. n.d. 3.03 2.82	2.72	0/18
KSSQSVLYESVNHNSVA	QASTRES	QQYHRLPVS	1.73 2.32 1.50 1.44 2.54 1.97	1.92	0/18

The authors' rule: three or more of the six replicates give a measured affinity, fewer mean a poor binder. A sequence measured in both rounds can read differently, since the two assays cover different ranges. Empty control strains, which show no peptide, gave a signal in 4% of pairings with all light chain designs; the median was 2.64 and 95% of these signals were weaker than 1.59. No background was subtracted. Also given: how often the same scFv was detected with the empty control strains, with their mean in brackets. The parent sequence was in this pool as ten entries: three were never detected, three once, and four in most replicates, with averages from 0.34 to 2.37.